Common to all, as to conditions: 3H-CGP 12177 whole cell binding, mean ± s.e.mean
For one experiment, the target named is beta1-adrenoceptor (Homo sapiens, UniProt P08588). As to the kind of experiment: 3H-CGP12177 whole-cell binding, CHO cells expressing human beta1-adrenoceptor.
The target in the next experiment is human beta2-adrenoceptor (Homo sapiens, UniProt P07550). As to the kind of experiment: 3H-CGP12177 whole-cell binding, CHO cells expressing human beta2-adrenoceptor.
In another experiment the target is human beta3-adrenoceptor (Homo sapiens, UniProt P13945). The experiment is described as follows: 3H-CGP12177 whole-cell binding, CHO cells expressing human beta3-adrenoceptor.

Sequences of proteins named here, by UniProt entry; tags and fusion partners are left off.
UniProt P08588, whole entry: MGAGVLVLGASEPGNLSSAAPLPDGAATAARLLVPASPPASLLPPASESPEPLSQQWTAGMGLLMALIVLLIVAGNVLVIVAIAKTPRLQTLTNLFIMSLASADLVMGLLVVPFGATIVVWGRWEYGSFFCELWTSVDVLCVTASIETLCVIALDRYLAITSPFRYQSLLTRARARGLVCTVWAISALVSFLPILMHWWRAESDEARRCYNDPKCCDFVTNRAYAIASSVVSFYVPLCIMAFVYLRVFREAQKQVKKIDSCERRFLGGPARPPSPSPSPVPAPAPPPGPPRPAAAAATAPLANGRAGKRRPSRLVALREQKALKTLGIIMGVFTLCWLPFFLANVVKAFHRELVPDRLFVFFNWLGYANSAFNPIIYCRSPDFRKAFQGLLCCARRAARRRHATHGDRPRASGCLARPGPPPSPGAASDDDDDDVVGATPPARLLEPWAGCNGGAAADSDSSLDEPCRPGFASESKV
UniProt P07550, whole entry: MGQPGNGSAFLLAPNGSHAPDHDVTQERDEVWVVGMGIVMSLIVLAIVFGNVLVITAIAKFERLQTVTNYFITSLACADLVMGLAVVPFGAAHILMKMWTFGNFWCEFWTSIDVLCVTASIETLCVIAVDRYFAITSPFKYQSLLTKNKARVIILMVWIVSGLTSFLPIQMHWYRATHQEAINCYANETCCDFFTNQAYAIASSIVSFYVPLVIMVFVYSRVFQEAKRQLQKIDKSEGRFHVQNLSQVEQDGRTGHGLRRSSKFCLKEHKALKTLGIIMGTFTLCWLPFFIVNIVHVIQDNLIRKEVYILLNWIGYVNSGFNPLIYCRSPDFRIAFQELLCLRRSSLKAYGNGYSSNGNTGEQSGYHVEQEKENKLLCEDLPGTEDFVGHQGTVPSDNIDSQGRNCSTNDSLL
UniProt P13945, whole entry: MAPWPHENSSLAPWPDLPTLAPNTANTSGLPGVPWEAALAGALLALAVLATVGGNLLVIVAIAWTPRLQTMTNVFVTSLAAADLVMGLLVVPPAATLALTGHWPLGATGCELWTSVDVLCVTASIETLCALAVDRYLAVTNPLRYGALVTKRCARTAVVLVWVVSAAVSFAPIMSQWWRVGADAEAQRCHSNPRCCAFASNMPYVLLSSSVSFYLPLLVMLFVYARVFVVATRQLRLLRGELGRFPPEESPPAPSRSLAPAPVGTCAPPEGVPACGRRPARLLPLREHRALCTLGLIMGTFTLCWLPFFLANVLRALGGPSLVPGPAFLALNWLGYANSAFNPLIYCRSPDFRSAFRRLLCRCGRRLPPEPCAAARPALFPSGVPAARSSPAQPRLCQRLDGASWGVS

Molecules are shown by their SMILES.

Take `O=C(NCCNCC(O)COc1ccc(OCCOC2CCCC2)cc1)Nc1cccc(Cl)c1` (stereo not drawn): the “Beta 1 Log KD” value on beta1-adrenoceptor is recorded as −8.14 ± 0.04. The “Beta 2 Log KD” value on human beta2-adrenoceptor is recorded as −5.59 ± 0.05. Besides, the “Beta 3 Log KD” value at human beta3-adrenoceptor is reported as −5.05 ± 0.09.

The record behind these values is patent publication US20130261178A1, “PHENOXYPROPANOL DERIVATIVES AND THEIR USE IN TREATING CARDIAC AND CARDIOVASCULAR DISEASES” (priority 2010, published 2013).
